Legend:
CYP2C19 = CYP2C19 (Homo sapiens, UniProt P33261); test: CYP inhibition test (mephenyloin 4'-hydroxylation); settings: read-out: IC50 CYP2C19; pooled human liver microsomes, 50 μmol/L S-mephenyloin, 15 minutes, 37° C.; tested form: tartrate
Description: (§1) The CYP inhibition test is a test to assess the inhibitory effect of a compound of the present invention towards typical substrate metabolism reactions on CYP enzymes in human liver microsomes. The marker reactions on human main five CYP enzymes (CYP1A2, 2C9, 2C19, 2D6, and 3A4) were used as follows; 7-ethoxyresorufin O-deethylation (CYP1A2), tolbutamide methyl-hydroxylation (CYP2C9), mephenyloin 4′-hydroxylation (CYP2C19), dextromethorphan O-demethylation (CYP2D6), and terfenedine hydroxylation (CYP3A4). The commercially available pooled human liver microsomes were used as an enzyme resource. […]
(§2) Five kinds of substrates, human liver microsomes, and a compound solution of the present invention in 50 mmol/L Hepes buffer were added to a 96-well plate at the composition as described above as a reaction solution. […] After the centrifugation at 3000 rpm for 15 minutes, resorufin (CYP1A2 metabolite) in the supernatant was quantified by a fluorescent plate reader, and hydroxytolbutamide (CYP2C9 metabolite), 4′-hydroxymephenyloin (CYP2C19 metabolite), dextrorphan (CYP2D6 metabolite), and terfenadine alcohol metabolite (CYP3A4 metabolite) in the supernatant were quantified by LC/MS/MS. […]

Chains of the proteins cited; added tags and fusions are not shown.
UniProt P33261, whole entry: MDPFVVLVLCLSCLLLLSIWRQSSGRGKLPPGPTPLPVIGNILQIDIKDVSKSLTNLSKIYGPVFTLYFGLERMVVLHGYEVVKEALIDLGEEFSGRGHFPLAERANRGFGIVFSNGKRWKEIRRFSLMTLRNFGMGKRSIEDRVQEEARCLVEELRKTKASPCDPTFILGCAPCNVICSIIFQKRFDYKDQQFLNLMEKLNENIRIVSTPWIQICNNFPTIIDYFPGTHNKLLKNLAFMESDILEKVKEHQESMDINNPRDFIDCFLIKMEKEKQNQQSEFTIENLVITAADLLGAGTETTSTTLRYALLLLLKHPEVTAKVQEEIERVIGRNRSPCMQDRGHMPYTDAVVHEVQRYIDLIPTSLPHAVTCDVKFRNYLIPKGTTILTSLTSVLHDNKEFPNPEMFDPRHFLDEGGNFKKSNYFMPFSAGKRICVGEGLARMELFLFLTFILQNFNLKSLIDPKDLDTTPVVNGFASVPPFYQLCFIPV
UniProt P05177, whole entry: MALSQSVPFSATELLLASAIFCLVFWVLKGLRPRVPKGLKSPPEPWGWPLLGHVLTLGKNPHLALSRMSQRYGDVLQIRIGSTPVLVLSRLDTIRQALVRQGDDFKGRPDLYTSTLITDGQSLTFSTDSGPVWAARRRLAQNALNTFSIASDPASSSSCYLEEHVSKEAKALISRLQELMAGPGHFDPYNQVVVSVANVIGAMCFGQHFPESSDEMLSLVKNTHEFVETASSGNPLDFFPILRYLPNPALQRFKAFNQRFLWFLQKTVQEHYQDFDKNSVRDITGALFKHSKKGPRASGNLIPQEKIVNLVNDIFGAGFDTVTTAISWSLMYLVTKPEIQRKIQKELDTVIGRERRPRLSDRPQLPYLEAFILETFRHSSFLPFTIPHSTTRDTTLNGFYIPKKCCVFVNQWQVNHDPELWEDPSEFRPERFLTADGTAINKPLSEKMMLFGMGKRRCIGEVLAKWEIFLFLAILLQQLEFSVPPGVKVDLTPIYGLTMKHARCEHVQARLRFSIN
UniProt P11712, whole entry: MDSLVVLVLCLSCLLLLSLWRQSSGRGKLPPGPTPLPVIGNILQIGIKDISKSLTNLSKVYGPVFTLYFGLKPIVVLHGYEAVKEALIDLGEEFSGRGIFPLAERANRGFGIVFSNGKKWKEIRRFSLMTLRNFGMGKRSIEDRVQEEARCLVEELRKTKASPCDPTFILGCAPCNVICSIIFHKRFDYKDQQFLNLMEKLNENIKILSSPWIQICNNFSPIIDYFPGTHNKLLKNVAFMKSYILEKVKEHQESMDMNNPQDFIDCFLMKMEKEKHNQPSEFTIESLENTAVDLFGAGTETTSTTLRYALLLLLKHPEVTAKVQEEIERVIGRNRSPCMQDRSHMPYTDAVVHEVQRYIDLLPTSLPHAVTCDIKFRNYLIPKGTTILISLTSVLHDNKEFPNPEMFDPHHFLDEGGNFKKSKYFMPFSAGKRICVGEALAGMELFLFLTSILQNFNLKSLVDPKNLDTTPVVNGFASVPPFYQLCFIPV
UniProt P10635, whole entry: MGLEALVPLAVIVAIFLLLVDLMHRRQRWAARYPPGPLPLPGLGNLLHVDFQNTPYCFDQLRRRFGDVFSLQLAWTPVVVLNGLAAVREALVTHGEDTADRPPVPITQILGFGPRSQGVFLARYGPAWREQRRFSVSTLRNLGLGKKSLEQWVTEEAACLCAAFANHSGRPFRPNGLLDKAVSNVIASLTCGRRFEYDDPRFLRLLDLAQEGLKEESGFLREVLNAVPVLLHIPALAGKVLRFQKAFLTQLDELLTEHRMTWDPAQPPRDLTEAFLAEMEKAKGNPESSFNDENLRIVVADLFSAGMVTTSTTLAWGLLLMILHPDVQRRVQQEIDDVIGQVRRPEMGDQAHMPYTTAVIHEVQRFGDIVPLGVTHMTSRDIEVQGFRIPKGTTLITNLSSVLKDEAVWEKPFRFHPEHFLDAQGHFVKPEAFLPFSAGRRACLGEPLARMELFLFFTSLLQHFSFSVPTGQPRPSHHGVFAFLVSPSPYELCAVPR
UniProt P08684, whole entry: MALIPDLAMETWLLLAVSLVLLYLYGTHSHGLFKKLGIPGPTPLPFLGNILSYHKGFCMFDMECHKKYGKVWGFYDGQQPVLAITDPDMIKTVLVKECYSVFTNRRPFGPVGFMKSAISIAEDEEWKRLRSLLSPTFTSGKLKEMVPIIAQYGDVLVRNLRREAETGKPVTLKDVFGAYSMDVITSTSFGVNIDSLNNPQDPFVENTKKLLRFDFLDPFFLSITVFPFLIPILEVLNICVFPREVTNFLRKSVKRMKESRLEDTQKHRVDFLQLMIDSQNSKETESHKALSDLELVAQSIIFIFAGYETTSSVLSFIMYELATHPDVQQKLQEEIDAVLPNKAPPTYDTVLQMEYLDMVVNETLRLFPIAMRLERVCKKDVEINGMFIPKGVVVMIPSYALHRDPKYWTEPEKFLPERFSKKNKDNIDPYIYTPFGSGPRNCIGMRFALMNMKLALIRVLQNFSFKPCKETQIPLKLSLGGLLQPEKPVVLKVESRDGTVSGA

CYP1A2 = CYP1A2 (Homo sapiens, UniProt P05177); test: CYP inhibition test (7-ethoxyresorufin O-deethylation); settings: read-out: IC50 CYP1A2; pooled human liver microsomes, 0.5 μmol/L ethoxyresorufin, 15 minutes, 37° C.; tested form: tartrate
Description: as §1, §2

CYP2C9 = CYP2C9 (Homo sapiens, UniProt P11712); test: CYP inhibition test (tolbutamide methyl-hydroxylation); settings: read-out: IC50 CYP2C9; pooled human liver microsomes, 100 μmol/L tolbutamide, 15 minutes, 37° C.; tested form: tartrate
Description: as §1, §2

CYP2D6 = CYP2D6 (Homo sapiens, UniProt P10635); test: CYP inhibition test (dextromethorphan O-demethylation); settings: read-out: IC50 CYP2D6; pooled human liver microsomes, 5 μmol/L dextromethorphan, 15 minutes, 37° C.; tested form: tartrate
Description: as §1, §2

CYP3A4 = CYP3A4 (Homo sapiens, UniProt P08684); test: CYP inhibition test (terfenedine hydroxylation); settings: read-out: IC50 CYP3A4; pooled human liver microsomes, 1 μmol/L terfenedine, 15 minutes, 37° C.; tested form: tartrate
Description: as §1, §2

Measured: IC50

C[C@@]1(c2cc(NC(=O)c3ccc(C#N)cn3)ccn2)C=CSC(N)=N1.O=C(O)C(O)C(O)C(=O)O [Compound I-10]
> 20 µM: all assays above

From patent US20140235626A1, “PYRIDINE DERIVATIVES AND A PHARMACEUTICAL COMPOSITION FOR INHIBITING BACE1 CONTAINING THEM” (SHIONOGI & CO., LTD., priority 2011, published 2014)
